Measured affinities in a library of Ab-14 heavy chain variants

Antigen: PDVDLGDISGINAS, a 14-residue peptide of the SARS-CoV-2 spike HR2 region.

The variants keep the light chain, the linker and the frameworks of Ab-14 (scFv order VH, a 15-residue (Gly4Ser)3 linker, VL).
VH: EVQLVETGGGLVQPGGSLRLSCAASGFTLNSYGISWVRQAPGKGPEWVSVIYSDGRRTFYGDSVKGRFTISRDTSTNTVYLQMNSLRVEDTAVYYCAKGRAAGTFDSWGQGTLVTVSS
VL: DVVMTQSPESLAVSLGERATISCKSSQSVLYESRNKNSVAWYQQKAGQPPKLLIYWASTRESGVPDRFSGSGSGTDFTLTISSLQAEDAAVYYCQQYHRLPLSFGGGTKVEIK

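The parent was found by panning a naive human phage display library on the peptide. In library AAYL49, one, two or three CDR residues were substituted; doubles and triples were drawn at random. In AlphaSeq, yeast of one mating type display the scFv and yeast of the other type display the target. Mating (16 h, 30 °C) was followed by selection of diploids and sequencing of their barcodes. Scores were corrected for input abundance and mapped to Kd with protein pairs of known affinity run in the same pool. Each pool was mated in three replicate cultures.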

Substitutions are numbered in sequence along the VH above, starting at 1 (not Kabat).
Values are log10 of the apparent Kd in nM; lower means stronger binding.
"nd" marks a missing value. The strain was present, yet no cells mated with the target were sequenced in that replicate, which points to weak or no binding.

| # | changes | log10 Kd, replicates | control signals |
|---|---|---|---|
| 1 | S63Q F105M D106G | 3.45 / nd / nd | 2/9 (3.86) |
| 2 | S53D T58F K65I | 4.07 / nd / nd | 5/9 (4.39) |
| 3 | F27T N30D G103L | nd / nd / nd | 0/9 |
| 4 | S53G A101V A102K | nd / nd / nd | 2/9 (3.50) |
| 5 | F27W Y52E V64P | 4.21 / 4.89 / nd | 7/9 (3.97) |
| 6 | F59P K65E A102D | nd / nd / nd | 0/9 |
| 7 | N30C I51K D106P | nd / nd / nd | 1/9 (4.19) |
| 8 | G55H R57V F105H | 5.24 / nd / nd | 2/9 (4.37) |
| 9 | G61L A101M A102H | 5.59 / nd / 3.87 | 4/9 (4.54) |
| 10 | G33A A101Q D106C | nd / nd / nd | 6/9 (4.49) |
| 11 | F27A G33T | nd / 3.76 / nd | 2/9 (3.72) |
| 12 | D54S G61C D62H | nd / nd / nd | 1/9 (3.83) |
| 13 | F27L D106K S107T | nd / 3.56 / nd | 2/9 (3.24) |
| 14 | K65M A101M S107H | 2.07 / 1.98 / 1.94 | 4/9 (4.38) |
| 15 | N30M Y52R G61M | nd / nd / nd | 0/9 |
| 16 | Y32Q V64Y G103S | nd / nd / nd | 0/9 |
| 17 | N30M V50N Y60L | nd / nd / nd | 1/9 (2.12) |
| 18 | S31C S53N | nd / 4.73 / nd | 4/9 (3.10) |
| 19 | N30R Y52L D54L | nd / nd / 3.73 | 0/9 |
| 20 | L29T G61M | nd / nd / nd | 0/9 |
| 21 | T58N G99P | nd / nd / nd | 0/9 |
| 22 | Y32F R57Y D62Q | 5.34 / nd / nd | 6/9 (4.57) |
| 23 | I51L Y52D F105R | nd / nd / nd | 0/9 |
| 24 | V50R Y52C D106W | 3.91 / 3.90 / 2.94 | 0/9 |
| 25 | I51R T58I R100Q | nd / nd / nd | 0/9 |
| 26 | D54E R100Q | nd / 3.77 / 4.68 | 0/9 |
| 27 | F27G G33H R100I | 3.70 / nd / nd | 1/9 (4.08) |
| 28 | Y52C D62R K65Q | nd / nd / nd | 0/9 |
| 29 | N30T S31F T58K | nd / nd / nd | 1/9 (3.66) |
| 30 | V50W V64M R100C | nd / nd / nd | 1/9 (3.54) |
| 31 | T28P S53G D54I | nd / nd / 5.11 | 3/9 (4.43) |
| 32 | F59K V64P S107R | 5.54 / 4.58 / 3.26 | 3/9 (3.47) |
| 33 | F27V Y52D G103S | nd / nd / nd | 1/9 (4.00) |

The first 3 variants above that were never detected:

| changes | log10 Kd, replicates | control signals |
|---|---|---|
| F27T N30D G103L | nd / nd / nd | 0/9 |
| S53G A101V A102K | nd / nd / nd | 2/9 (3.50) |
| F59P K65E A102D | nd / nd / nd | 0/9 |

As a blank, each scFv also met three strains without target: over library AAYL49, 15% of these pairings were detected, typically at 4.06 and seldom below 2.83. For each scFv, signals with the empty controls are counted beside the result, with their mean in brackets.
For reference, the parent read 0.65 as the reference entry and 4.11 (one replicate of three) as a member of this library.

From the AlphaSeq antibody data of Engelhart et al. 2022 (doi:10.1038/s41597-022-01779-4), copy in the FLAb collection.